This note sets out measurements from article PMC8691691 (ACS Chemical Neuroscience, 2021).

Changes are numbered by the printed parent chain.

One experiment concerns the target T1, GlyT2 T584F mutant (Rattus norvegicus, UniProt P58295, T584F).
T1 construct: expressed in transfected cells; host or cells: COS7
T1 sequence (P58295 1-799 T584F): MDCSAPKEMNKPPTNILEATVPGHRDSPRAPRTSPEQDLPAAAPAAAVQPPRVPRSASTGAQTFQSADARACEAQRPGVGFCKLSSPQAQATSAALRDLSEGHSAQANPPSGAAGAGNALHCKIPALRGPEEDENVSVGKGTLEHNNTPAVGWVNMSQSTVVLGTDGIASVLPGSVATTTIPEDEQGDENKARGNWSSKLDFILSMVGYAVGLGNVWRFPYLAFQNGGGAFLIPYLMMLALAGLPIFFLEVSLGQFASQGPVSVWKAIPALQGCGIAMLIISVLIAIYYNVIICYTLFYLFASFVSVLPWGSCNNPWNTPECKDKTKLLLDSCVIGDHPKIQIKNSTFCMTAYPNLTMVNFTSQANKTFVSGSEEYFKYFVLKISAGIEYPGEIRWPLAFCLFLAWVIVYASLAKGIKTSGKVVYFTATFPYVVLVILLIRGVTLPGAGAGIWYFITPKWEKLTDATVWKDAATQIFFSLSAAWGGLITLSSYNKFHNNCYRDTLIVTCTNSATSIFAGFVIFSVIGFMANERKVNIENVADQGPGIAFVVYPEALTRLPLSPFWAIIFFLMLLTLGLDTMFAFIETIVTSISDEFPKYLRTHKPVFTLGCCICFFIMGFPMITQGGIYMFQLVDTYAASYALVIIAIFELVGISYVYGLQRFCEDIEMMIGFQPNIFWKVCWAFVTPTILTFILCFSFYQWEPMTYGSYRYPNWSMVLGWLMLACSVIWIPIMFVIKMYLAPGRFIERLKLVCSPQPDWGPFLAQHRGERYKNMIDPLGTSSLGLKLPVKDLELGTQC
The experiment in a line: [3H]glycine transport by GlyT2 mutant in COS7 cells. Type of experiment: cell-based.

A further experiment deals with T2, GlyT2 W484F mutant (Rattus norvegicus, UniProt P58295, W484F).
T2 construct: expressed in transfected cells; host or cells: COS7
T2 sequence (P58295 1-799 W484F): T1 sequence (P58295 1-799 T584F) with W484F, F584T
The experiment is described as above. Type of experiment: cell-based.

For orientation: EC50 means the concentration that produces a half-maximal response. Regarding `NCC(=O)O` [Gly, glycine], the EC50 came out at 180 ± 0.6 µM at GlyT2 T584F mutant and 910 ± 83 µM on GlyT2 W484F mutant.
